Assay results published in PMC12715756, “Next-Generation MDMA Analogue SDMA: Pharmacological and Metabolic Insights” (ACS Chemical Neuroscience, 2025).

Amino acid sequences for entries named in this document (tags omitted). Residues count along the entry.
UniProt Q01959, whole entry: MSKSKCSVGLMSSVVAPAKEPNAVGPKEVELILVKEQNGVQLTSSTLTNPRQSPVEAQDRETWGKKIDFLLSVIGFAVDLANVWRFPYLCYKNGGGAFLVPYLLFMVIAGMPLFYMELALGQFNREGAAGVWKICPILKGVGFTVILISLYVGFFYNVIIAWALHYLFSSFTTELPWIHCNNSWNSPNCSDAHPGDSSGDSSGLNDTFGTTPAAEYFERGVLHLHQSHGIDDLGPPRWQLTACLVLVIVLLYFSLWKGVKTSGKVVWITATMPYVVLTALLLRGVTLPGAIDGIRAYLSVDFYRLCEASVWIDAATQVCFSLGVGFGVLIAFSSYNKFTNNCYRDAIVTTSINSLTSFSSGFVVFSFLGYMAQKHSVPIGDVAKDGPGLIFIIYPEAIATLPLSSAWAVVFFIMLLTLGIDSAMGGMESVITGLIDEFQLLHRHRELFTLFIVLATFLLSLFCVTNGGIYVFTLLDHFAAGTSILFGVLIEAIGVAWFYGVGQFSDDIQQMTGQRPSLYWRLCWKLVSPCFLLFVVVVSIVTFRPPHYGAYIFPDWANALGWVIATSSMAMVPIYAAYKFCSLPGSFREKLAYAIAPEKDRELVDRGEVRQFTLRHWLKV
UniProt P28335, 33-458: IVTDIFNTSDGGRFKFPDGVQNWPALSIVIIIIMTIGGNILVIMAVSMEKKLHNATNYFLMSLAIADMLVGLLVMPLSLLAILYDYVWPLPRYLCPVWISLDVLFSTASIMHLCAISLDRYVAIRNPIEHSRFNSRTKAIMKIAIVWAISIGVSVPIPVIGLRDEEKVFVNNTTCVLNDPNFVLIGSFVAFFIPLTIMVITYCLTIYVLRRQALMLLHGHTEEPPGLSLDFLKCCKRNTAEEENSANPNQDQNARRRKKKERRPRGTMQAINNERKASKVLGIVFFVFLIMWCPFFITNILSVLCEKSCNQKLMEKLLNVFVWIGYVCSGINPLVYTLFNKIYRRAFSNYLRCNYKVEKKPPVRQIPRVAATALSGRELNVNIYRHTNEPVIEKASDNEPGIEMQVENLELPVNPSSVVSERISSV

Key:
DAT [1] = target: T1, DAT (Homo sapiens, UniProt Q01959); details: uptake inhibition; DAT/SERT ratio = 1/DAT / 1/SERT
DAT [2] = target: T1, DAT; details: efflux assays
5-HT2C = 5-HT2C (Homo sapiens, UniProt P28335); experiment: cell-based

Row | SMILES | DAT/SERT ratio (IC50) (DAT [1]) | DAT/SERT ratio (EC50) (DAT [2]) | EC50 (5-HT2C) [nM] | Emax (5-HT2C; HEK-293T, read-out: Emax ± SEM, %5-HT response 5-HT2C) [%]
1 | CC(N)Cc1ccc2c(c1)OCO2 (stereo not drawn) [MDA, 3,4-Methylenedioxyamphetamine, reference compound] | 2.03 | 0.65 |  | 
2 | CNC(C)Cc1ccc2c(c1)OCO2 (stereo not drawn) [MDMA, 3,4-Methylenedioxymethamphetamine] | 0.42 | 0.21 | 664 | 85 ± 6
